# Tested on: RAR and RXR receptor
# Assay: RAR vs RXR agonist activity (retinoid selectivity)
# Assay type: biochemical
# Details: RAR selective agonist preferably has RAR vs RXR activity ratio of at least 5; for SELECTIVITY: Table 2; for RETINOID SELECTIVITY: Table 3
Compound,SELECTIVITY,RETINOID SELECTIVITY
"CC1=C(/C=C/C(C)=C/C=C/C(C)=C\C(=O)O)C(C)(C)CCC1 [AGN 190013, (2Z,4E,6E,8E)-3,7-dimethyl-9-(2,6,6-trimethyl-1-cyclohexen-1-yl)-2,4,6,8-nonatetraenoic acid]",RAR,RAR
"CC1=C(/C=C/C(C)=C/C=C/C(C)=C/C(=O)O)C(C)(C)CCC1 [AGN 100335, (E)-3,7-dimethyl-9-(2,6,6-trimethyl-1-cyclohexen-1-yl)-2,4,6,8-nonatetraenoic acid]",RAR,RAR
"CC1=C(/C=C/C(C)=C\C=C\C(C)=C\C(=O)O)C(C)(C)CCC1 [AGN 192013, (2E,4E,6Z,8E)-3,7-dimethyl-9-(2,6,6-trimethyl-1-cyclohexen-1-yl)-2,4,6,8-nonatetraenoic acid]",PAN AGONIST,PANAGONIST

# — patent US5798372A, “Method for preventing onset of restenosis after angioplasty employing a retinoid” (Allergan, priority 1997, dated 1998)
